Yeast mating assay B: variants of the scFv Ab-14

Source: Li et al. 2023 (doi:10.1038/s41467-023-39022-2), MIT Lincoln Laboratory and A-Alpha Bio; data file from the FLAb repository.

Target: peptide PDVDLGDISGINAS, taken from heptad repeat 2 (HR2) of SARS-CoV-2 spike.

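These sequences belong to a second round, designed from the earlier measurements on random variants of the parent. Their group label is 14H_En_HC (En: ensemble of fine-tuned language models; HC: hill climbing; a sequence that several methods proposed may carry one label only). The assay is AlphaSeq: two haploid yeast populations carry antibody and antigen on their surface. After mating in shaken culture at 30 °C for 16 h, diploids were selected and their barcode pairs sequenced. Each replicate has its own calibration line, from reference interactions of the BCL2 family. There are six technical replicates.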

The variants keep the light chain, the linker and the frameworks of Ab-14 (scFv order VH, three GGGGS repeats, VL).
VH: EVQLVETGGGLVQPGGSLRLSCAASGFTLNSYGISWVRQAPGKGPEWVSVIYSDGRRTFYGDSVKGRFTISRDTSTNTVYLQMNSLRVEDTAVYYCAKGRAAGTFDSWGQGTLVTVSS
VL: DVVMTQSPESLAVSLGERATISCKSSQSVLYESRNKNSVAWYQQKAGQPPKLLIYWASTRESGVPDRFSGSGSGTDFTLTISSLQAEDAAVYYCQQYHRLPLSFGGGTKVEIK

Variants are written as CDR1, CDR2 and CDR3 of the heavy chain (limits as in the source). Parent: GFTLNSYGIS, VIYSDGRRTFYGDSVK, GRAAGTFDS. Values are log10 of the apparent Kd in nM; lower means stronger binding. Averages over replicates are reported, and they cover detected replicates only. A pair that was not seen in that replicate is written "ND"; this usually means weak binding, but a binder can also be missed. Values of this round are not directly comparable with the first-round values of the same sequences. Of ten entries with the parent sequence, four were seen in most replicates (averages 0.34 to 2.37), three in one and three in none, so single entries are noisy. As a blank, each scFv also met three strains without target: over all heavy chain designs, 1% of these pairings were detected, typically at 2.08 and seldom below 0.84. The control count says in how many pairings with the empty strains this scFv gave a signal, with their mean in brackets. In the paper, a design with two or fewer of six values counts as a poor binder.

| # | CDR-H1 | CDR-H2 | CDR-H3 | log10 Kd (nM) by replicate | mean log10 Kd (nM) | control signals |
|---|---|---|---|---|---|---|
| 1 | GFDLNEYGIS | VIYADGRRTFYADSVK | GESAGTFDI | ND ND ND 2.62 2.42 ND | 2.52 | 0/18 |
| 2 | GFDLDEYGIS | VIYADGRRTFYQDSVK | GNVAGTFDL | -0.34 -0.94 -0.94 0.11 -0.83 -0.63 | -0.60 | 0/18 |
| 3 | WFTLNEYGIS | VIYSDGRRTFYTDSVK | GRFAGTFDS | ND 2.58 ND 2.08 4.36 ND | 3.01 | 0/18 |
| 4 | GFDLNEYGIS | VIYADGRRTFYTDNVK | GNNAGTFDS | -0.51 -0.63 -0.50 -0.78 -0.67 -0.35 | -0.57 | 0/18 |
| 5 | GFDLNEYGIS | VIYADGRRTFYADSVK | GETAGTFDQ | -0.46 -0.61 -0.59 -0.34 -0.39 -0.41 | -0.47 | 0/18 |
| 6 | GFDLNEYGIS | VIYADGMRTHYTDSVK | GNEAGTFDM | ND 0.90 0.03 0.47 0.33 ND | 0.43 | 0/18 |
| 7 | GFNLEDYGIS | VIYADGRRTFYVDSVK | GKVAGTFDV | -0.49 -0.54 -0.48 -0.84 -0.62 -0.60 | -0.59 | 0/18 |
| 8 | GFDLNEYGIS | VIYADGRRTAYSDSVK | GTNAGFFDS | ND ND ND 1.27 ND ND | 1.27 | 0/18 |
| 9 | GFDLNEYGIS | VIYADGRRTFYADSVK | GNVAGTFDK | -0.53 -0.35 -0.63 -0.80 -0.68 -0.53 | -0.59 | 0/18 |
| 10 | GFDINEYGIS | VIYADGRRTAYADSVK | GEVAGTFDS | -1.06 -0.74 -0.86 -1.42 -0.86 -0.67 | -0.93 | 0/18 |
| 11 | GFDLNEYGIS | VIYADGRRSFYADSVK | GQVAGTFDS | -0.29 -0.31 -0.71 -0.63 -0.71 -0.37 | -0.50 | 0/18 |
| 12 | GFGLDEYGIS | VIYADGRRTAYADSVK | GENAGTFLM | 1.40 0.74 0.82 1.29 1.28 0.47 | 1.00 | 1/18 (2.17) |
| 13 | GFNLDEYGIS | VIYADGRRTFYADSVK | GSHAGTFDM | -0.69 -0.67 -0.90 -0.84 -0.91 -0.60 | -0.77 | 0/18 |
| 14 | GFDLNEYGIS | VIYADGRRTSYSDSVK | GEAAGTFDV | 0.86 0.87 0.60 -0.03 0.59 0.33 | 0.54 | 0/18 |
| 15 | GFDLNEYGIS | VIYADGRRTFYADSVK | GHVAGTFVL | -0.63 -0.87 -0.31 -0.78 -0.77 -0.69 | -0.67 | 0/18 |
| 16 | GFDLNEYGIS | VIYADGRRTFYSDSVK | GTNAGTFDV | -0.25 -0.03 -0.26 -0.49 -0.47 -0.11 | -0.27 | 1/18 (4.09) |
| 17 | GFDLNEYGIS | VIYADGRRTSYADSVK | GETAGTFDV | -0.94 -1.04 -0.75 -0.44 -1.33 -0.77 | -0.88 | 0/18 |
| 18 | GFDLNEYGIS | VIYADGRRTFYADSVK | GELAGTFSV | -0.70 -1.11 -1.46 -1.50 -1.26 -1.06 | -1.18 | 0/18 |
| 19 | GFDLEDYGIS | VIYADGRRTFYADSVK | GNVAGTFDQ | 0.21 0.29 0.52 0.36 0.61 0.53 | 0.42 | 0/18 |
| 20 | GFDLNEYGIS | VIYADGRRTAYSDSVK | GEAAGTFDA | ND ND ND ND ND ND | ND | 0/18 |
| 21 | GFDLDEYGIS | VIYADGRRTFYQDSVK | GQAAGTFDQ | -0.43 -0.73 -0.58 -1.18 -0.96 -1.06 | -0.82 | 0/18 |
| 22 | GFNLNEYGIS | VIYADGRRTFYADSVK | GEAAGTFDF | 0.09 0.03 0.76 0.68 0.03 0.02 | 0.27 | 1/18 (1.36) |
| 23 | GFDLESYGIS | VIYADGSRTAYADSVK | GNVAGTFDF | -0.44 -0.49 -0.32 -0.63 -0.57 -0.31 | -0.46 | 1/18 (1.74) |
| 24 | GFDLNEYGIS | VIYADGKRTAYIDSVK | GEQAGTFDV | 0.23 0.02 -0.16 0.10 0.01 0.11 | 0.05 | 0/18 |
| 25 | GFDLNEYGIS | VIYADGRRTSYVDSVK | GQVAGTFNV | -0.36 -0.42 -0.37 -0.35 -0.32 -0.14 | -0.33 | 0/18 |
| 26 | GFDLNEYGIS | VIYADGRRTFYADSVK | GEAGGTFDT | -0.30 -0.33 -0.34 -0.45 -0.15 -0.13 | -0.28 | 1/18 (3.09) |
| 27 | GFDLNEYGIS | VIYADGMRTFYSDSVK | GTAGGTFDI | 0.54 0.31 0.24 0.61 0.01 0.21 | 0.32 | 1/18 (2.87) |
| 28 | GFDLESYGIS | VIYADGRRTFYSDSVK | GTNAGTFDI | -0.29 -0.45 -0.29 -0.48 -0.32 -0.17 | -0.33 | 0/18 |
| 29 | GFNLNEYGIS | VIYADGRRTFYADSVK | GGDAGTFDV | 1.04 0.63 1.20 1.10 0.70 0.45 | 0.85 | 0/18 |
| 30 | GFTLNDYGIS | VIYSDGRRTQYADSVK | GRAAGTFDS | 0.42 0.69 -0.08 0.80 0.38 0.01 | 0.37 | 1/18 (1.31) |
| 31 | GFDLNEYGIS | VIYADGMRTFYIDSVK | GEIAGTFNV | -0.56 -0.93 -0.07 -0.75 -1.42 -0.94 | -0.78 | 0/18 |
| 32 | GFNLNEYGIS | VIYADGRRSFYSDSVK | GEHAGTFDV | -0.32 -0.56 -0.48 -0.65 -0.92 -0.59 | -0.59 | 0/18 |
| 33 | GFSLDEYGIS | VIYADGQRTFYADSVK | GNSAGTFDS | -0.41 -0.11 -0.24 -0.25 0.05 -0.10 | -0.18 | 2/18 (1.69) |
| 34 | GFNLNEYGIS | VIYADGMRTFYADSVK | GEIAGTFDF | -0.37 -0.49 -0.82 -0.69 -0.81 -0.79 | -0.66 | 0/18 |
| 35 | GFTLNEYGIS | VIYADGRRTFYADSVK | GNQAGTFDV | -0.05 -0.63 -0.26 -0.48 -0.62 -0.49 | -0.42 | 2/18 (3.35) |
| 36 | GFDLNEYGIS | VIYADGRRTFYKDSVK | GEAAGTFDL | -0.14 -0.35 -0.65 -0.48 -0.67 0.54 | -0.29 | 0/18 |

Top 5 of the variants detected in all replicates, tightest first:

| CDR-H1 | CDR-H2 | CDR-H3 | log10 Kd (nM) by replicate | mean log10 Kd (nM) | control signals |
|---|---|---|---|---|---|
| GFDLNEYGIS | VIYADGRRTFYADSVK | GELAGTFSV | -0.70 -1.11 -1.46 -1.50 -1.26 -1.06 | -1.18 | 0/18 |
| GFDINEYGIS | VIYADGRRTAYADSVK | GEVAGTFDS | -1.06 -0.74 -0.86 -1.42 -0.86 -0.67 | -0.93 | 0/18 |
| GFDLNEYGIS | VIYADGRRTSYADSVK | GETAGTFDV | -0.94 -1.04 -0.75 -0.44 -1.33 -0.77 | -0.88 | 0/18 |
| GFDLDEYGIS | VIYADGRRTFYQDSVK | GQAAGTFDQ | -0.43 -0.73 -0.58 -1.18 -0.96 -1.06 | -0.82 | 0/18 |
| GFDLNEYGIS | VIYADGMRTFYIDSVK | GEIAGTFNV | -0.56 -0.93 -0.07 -0.75 -1.42 -0.94 | -0.78 | 0/18 |